Assay results: publication PMC3667390 (Cancer immunology, immunotherapy : CII, 2009)

Key:
purified HLA DRB1 *1302 = purified HLA DRB1 *1302 (Homo sapiens, UniProt P01903+P01911, A100E/A169T/K41T/L162R/M171V/P40S/Q125H/Q178H/Q39Y/Q99D/R42S/S66N/T262R/V115G/W38E/Y61H); experiment: HLA-DR binding assay
purified HLA DRB1 *0405 = purified HLA DRB1 *0405 (Homo sapiens, UniProt P01903+P01911, A100R/A169T/D86S/F76Y/I96L/K127E/L162R/M171V/N62H/P40V/Q125Y/R42H/S133A/S149N/S66Y/V115G/V209L/W38E); experiment: HLA-DR binding assay

CC[C@H](C)[C@H](NC(=O)[C@@H](NC(=O)[C@H](CCCCN)NC(=O)[C@@H](NC(=O)[C@@H](NC(=O)[C@@H](NC(=O)[C@@H](N)CCCNC(=N)N)[C@@H](C)O)[C@@H](C)O)C(C)C)[C@@H](C)O)C(=O)N[C@H](C(=O)N[C@H](C(=O)N[C@@H](CO)C(=O)N[C@@H](C)C(=O)N[C@@H](CCC(=O)O)C(=O)N[C@@H](CC(C)C)C(=O)N1CCC[C@H]1C(=O)N[C@@H](CCCCN)C(=O)O)C(C)C)[C@@H](C)O [CEA.488]
IC50 (purified HLA DRB1 *1302): 96 nM
IC50 (purified HLA DRB1 *0405): 11 nM
